In article PMC3917282, “Alkaloids from the Mangrove-Derived Actinomycete Jishengella endophytica 161111” (Marine Drugs, 2014):
Values after ≈ are worked out from the molar mass of the structure shown.

What was measured:
in vitro = details: dog
[1] = test system: influenza virus (A/Puerto Rico/8/34 (H1N1), PR/8); assay type: cell-based

Cc1cc2nc3[nH]c(=O)[nH]c(=O)c3nc2cc1C [Compound 10, lumichrome]
CC50 (in vitro): 124 ± 10.5 µg/mL (≈ 512 µM) | selectivity index (SI) [1]: 3.1
